One test has as its system MDA-MB-231 cells. The experiment in a line: Proliferation of triple negative breast cancer MDA-MB-231 cells. In kind it is cell-based. Particulars: compounds at final 2 μM, FIG. 5 panel B. The procedure:
(§1) […]. […] Cells were seeded at 20,000 cells/ml in 12 well plates in complete media. On day 3, the compounds were added at final 2 μM and the cells were counted every 3 days. […] Cells were seeded at 10,000 cells/ml in 12 well plates in complete media. The compounds were added at final 2 μM on day 2 and the cells were counted every 2 days.
(§2) Since ILK-dependent actin assembly regulates actin stress fibers, which in turn affects many cellular processes such as cell spreading, proliferation, and survival, we expected that Csbl-1 would interfere with ILK-dependent dysfunctional cellular behaviors. We therefore decided to examine the effect of Csbl-1 on MDA-MB-231— a triple negative breast cancer (TNBC) cell line. This cell line was chosen for the following reasons: (i) ILK is highly elevated in this metastatic cell line (see, FIG. 5a in Mongroo et al., 2004; FIG. 1E in Hsu et al., 2015; FIG. 1A in Qu et al., 2017)); (ii) it is a major type of TNBC cell line and has been extensively characterized (Holiday et al., 2011); (iii) currently there is no proven targeted therapy for TNBC (Denkert et al., 2017) so any effect of Csbl-1 would facilitate the development of therapeutics to treat this devastating disease. […].

A further test relates to MCF10a cells. Nature of the test: Proliferation of normal breast MCF10a cells. The format is cell-based. The following applies: compounds at final 2 μM, FIG. 5 panel A. The procedure: as §1, §2

As to `C#Cc1cccc(Nc2ncnc3cc(OCCOC)c(OCCOC)cc23)c1` [Erlotinib, reference compound], the “effect on proliferation of MDA-MB-231 cells” value in the test with MDA-MB-231 cells is given as “little effect”. Also, the “effect on proliferation of MCF10a cells” value in the test with MCF10a cells was “significant toxicity”.

(Values after patent US11524945B2, “Compounds for treating ILK-mediated diseases” (The Cleveland Clinic Foundation, priority 2018, dated 2022).)
